This series relates to JIMT-1 breast cancer cells. Description: Drug conjugates cell cytotoxicity assay (PrestoBlue). The series is classed as cell-based. As to conditions: 72 hours. As for the experimental part:
A solution of either the antibody Trastuzumab (Herceptin™), or the antibody-drug conjugate thereof Trastuzumab emtansine (T-DM1), was reacted with the bifunctional linker NHS-DBCO at the desired ratios. The DBCO/antibody ratio was determined by UV-VIS absorbance spectrometry, adjusting calculations accordingly. The solution was then left to stand under stirring and in the dark for about 1 hour. The reaction was then completed by adding 50 μL per mL of a IM solution of Tris base at pH 8, and leaving to stand at room temperature for 5 minutes. […]
In a T75 flask of confluent JIMT-1 cells (at least 75%), the culture medium was removed, and 2 mL of trypsin was then added and incubated at 37° C. for about 5 minutes or until the cells detached. The trypsin was inactivated by adding 10 mL of culture medium, the cells were centrifuged at 950 rpm for 5 minutes at 4° C., viable cells were visualized with trypan blue and counted using a hematocytometer. […] Fluorescence (excitation: 535-560 nm, emission: 590-615 nm) was measured. The cells were further incubated for another 30 minutes, and a second fluorescence reading was taken.

As for “T-DM1-N3-VC-(CDCA-C-SV40)2: Trastuzumab emtansine linked to the dimer via N-terminal N3 and protease-cleavable VC linker”, the “cytotoxicity compared with the unconjugated antibody / ADC” value is “enhance the cytotoxic activity”.
On to “Trastuzumab-N3-VC-(CDCA-C-SV40)2: Trastuzumab linked to the dimer via N-terminal 6-azido-L-lysine N3 and protease-cleavable valine-citrulline linker”, for which the “cytotoxicity compared with the unconjugated antibody / ADC” value is recorded as “impart cytotoxic activity”.

The values above are taken from patent US20260207765A1, “COVALENTLY-MODIFIED STEROID ACID-PEPTIDES HAVING ENHANCED STABILITY AND/OR BIOLOGICAL ACTIVITY” (priority 2022, published 2026).
